Experimental data as given in patent EP4831169A1, “NOVEL COMPOUND USED AS CBP/P300 INHIBITOR, AND PHARMACEUTICAL COMPOSITION FOR PREVENTING OR TREATING CANCER, INFLAMMATORY DISORDERS, OR AUTOIMMUNE DISEASES COMPRISING SAME AS ACTIVE INGREDIENT” (dated 2026).

Sequences of proteins named here, by UniProt entry; tags and fusion partners are left off. Residues count along the entry.
UniProt Q92793, 1085-1192 limits assumed: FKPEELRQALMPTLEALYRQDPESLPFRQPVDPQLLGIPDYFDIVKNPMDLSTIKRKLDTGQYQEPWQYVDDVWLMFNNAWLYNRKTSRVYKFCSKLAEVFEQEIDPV

What was measured:
CBP BRD protein = CBP BRD protein (Homo sapiens, UniProt Q92793); test: CBP bromodomain TR-FRET inhibitory activity assay; conditions: read-out: CBP BRD IC50, Table 3
BRD4 (BD1) protein = BRD4 (BD1) protein (Homo sapiens, UniProt O60885); test: BRD4 bromodomain TR-FRET inhibitory activity assay; conditions: read-out: BRD4 (BD1) IC50, Table 4

| Structure (SMILES) | IC50 (CBP BRD protein) [nM] | IC50 (BRD4 (BD1) protein) [nM] |
| --- | --- | --- |
| Cn1cc(-c2cc3nc(C(C)(C)C)n(-c4cc(C5CCC(=O)CC5)c5c(c4)n(C)c(=O)n5C)c3cc2C(F)F)cn1 | < 500 | > 5000 |
| C[C@@H]1CCN1c1cc(-n2c(C(C)(C)C)nc3cc(-c4cnn(C)c4)c(F)cc32)cc2c1n(C)c(=O)n2C | < 500 | > 5000 |
| Cn1cc(-c2cc3nc(-c4cncn4C)n(-c4cc(N5CCC5)c5c(c4)n(C)c(=O)n5C)c3cc2C(F)(F)F)cn1 | < 500 | 500 to 5000 |
| Cn1cc(-c2cc3nc(C(C)(C)C)n(-c4cc(N5CCC6(CC5)OCCO6)c5c(c4)n(C)c(=O)n5C)c3cc2C(F)F)cn1 | < 500 | > 5000 |
| CC(C)COc1cc(-n2c(-c3cncn3C)nc3cc(-c4cnn(C)c4)c(F)cc32)cc2c1n(C)c(=O)n2C | < 500 | > 5000 |
| Cc1ncc(-c2cc3nc(C(C)(C)C)n(-c4cc(C5CCOCC5)c5c(c4)n(C)c(=O)n5C)c3cc2C(F)(F)F)s1 | < 500 | > 5000 |
| Cn1cc(-c2cc3nc(C(C)(C)C)n(-c4cc(NC5CCCC5)c5c(c4)n(C)c(=O)n5C)c3cc2F)cn1 | < 500 | > 5000 |
| Cc1ncc(-c2cc3nc(C(C)(C)C)n(-c4cc(OCCN5CCOCC5)c5c(c4)n(C)c(=O)n5C)c3cc2C(F)F)s1 | < 500 | > 5000 |
| Cn1cc(-c2cc3nc(C(C)(C)C)n(-c4cc(N5CC(C)(O)C5)c5c(c4)n(C)c(=O)n5C)c3cc2Cl)cn1 | < 500 | 500 to 5000 |
| Cn1cc(-c2cc3nc(-c4cncn4C)n(-c4cc(N5CCC(O)C5)c5c(c4)n(C)c(=O)n5C)c3cc2F)cn1 (centres unmarked) | < 500 | 500 to 5000 |
| CC(C)n1cc(-c2cc3nc(C(C)(C)C)n(-c4cc(N5CC(C)(O)C5)c5c(c4)n(C)c(=O)n5C)c3cc2C(F)F)cn1 | < 500 | > 5000 |
| COc1ccc(Nc2cc(-n3c(-c4cncn4C)nc4cc(-c5cnn(C)c5)c(F)cc43)cc3c2n(C)c(=O)n3C)cc1 | < 500 | > 5000 |
| CNC(=O)c1cc2nc(C(C)(C)C)n(-c3cc(N4CCOCC4)c4c(c3)n(C)c(=O)n4C)c2cc1F | 500 to 5000 | > 5000 |
| Cn1cc(-c2cc3nc(-c4cncn4C)n(-c4cc(N5CC(F)(F)C5)c5c(c4)n(C)c(=O)n5C)c3cc2C(F)(F)F)cn1 | < 500 | > 5000 |
| COc1cc2c(cc1-c1cnn(C)c1)nc(C(C)(C)C)n2-c1cc(N2CCOCC2)c2c(c1)n(C)c(=O)n2C | < 500 | > 5000 |
| CCCOc1cc(-n2c(-c3cncn3C)nc3cc(-c4cnn(C)c4)c(F)cc32)cc2c1n(C)c(=O)n2C | < 500 | > 5000 |

| Structure (SMILES) | IC50 (CBP BRD protein) [nM] | IC50 (BRD4 (BD1) protein) [nM] |
| --- | --- | --- |
| Cn1cc(-c2cc3nc(-c4cncn4C)n(-c4cc(N5CCN(C(=O)OC(C)(C)C)CC5)c5c(c4)n(C)c(=O)n5C)c3cc2C(F)F)cn1 | < 500 | > 5000 |
| COC(=O)c1cc2c(cc1-c1cnn(C)c1)nc(C)n2-c1ccc2c(c1)n(C)c(=O)n2C | > 5000 | > 5000 |
| Cn1cc(-c2cc3nc(-c4cncn4C)n(-c4cc(C5CCNCC5)c5c(c4)n(C)c(=O)n5C)c3cc2F)cn1 | < 500 | > 5000 |
| Cn1cc(-c2cc3nc(-c4cncnc4)n(-c4cc(N5CC(C)(O)C5)c5c(c4)n(C)c(=O)n5C)c3cc2C(F)F)cn1 | < 500 | > 5000 |
| Cn1cc(-c2cc3nc(C(C)(C)C)n(-c4cc(N5CC(C)(O)C5)c5c(c4)n(C)c(=O)n5C)c3cc2NC(=O)OC(C)(C)C)cn1 | > 5000 | > 5000 |
| Cn1cc(-c2cc3nc(C(C)(C)C)n(-c4cc(N5CCC5)c5c(c4)n(C)c(=O)n5C)c3cc2F)cn1 | < 500 | > 5000 |
| Cn1cc(-c2cc3nc(C(C)(C)C)n(-c4cc(C5CCOCC5)c5c(c4)n(C)c(=O)n5C)c3cc2C#N)cn1 | < 500 | > 5000 |
| Cn1cc(-c2cc3nc(-c4cncn4C)n(-c4ccc5c(c4)n(C)c(=O)n5C)c3cc2C(=O)O)cn1 | 500 to 5000 | > 5000 |
| Cn1cc(-c2cc3nc(-c4cncn4C)n(-c4cc(N5CCC5)c5c(c4)n(C)c(=O)n5C)c3cc2F)cn1 | < 500 | 500 to 5000 |
| COc1cc2c(cc1-c1cnn(C)c1)nc(C(C)(C)C)n2-c1cc(N2CC(C)(O)C2)c2c(c1)n(C)c(=O)n2C | < 500 | 500 to 5000 |
| CNC(=O)c1cc2c(cc1-c1cnn(C)c1)nc(C(C)(C)C)n2-c1cc(N2CCOCC2)c2c(c1)n(C)c(=O)n2C | 500 to 5000 | 500 to 5000 |
| CC(C)n1c(=O)n(C)c2cc(-n3c(-c4cncn4C)nc4cc(-c5cnn(C)c5)c(F)cc43)ccc21 | 500 to 5000 | > 5000 |
| COc1cc2c(cc1-c1cnc(C)s1)nc(C(C)(C)C)n2-c1cc(N2CC(C)(O)C2)c2c(c1)n(C)c(=O)n2C | < 500 | 500 to 5000 |
| COC(=O)c1cc2c(cc1-c1cnn(C)c1)nc(-c1cncn1C)n2-c1ccc2c(c1)n(C)c(=O)n2C | < 500 | 500 to 5000 |
| Cn1cc(-c2cc3nc(-c4cncn4C)n(-c4cc(OCC5CCOCC5)c5c(c4)n(C)c(=O)n5C)c3cc2F)cn1 | < 500 | > 5000 |
